Test results published in PubChem BioAssay AID1203 (The Scripps Research Institute Molecular Screening Center, 2008).
This is a selection; strong and weak results do not stand in their true shares. Calls of active or inactive are those of the source.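 Rule for the calls: active = activation above the mean across all tested compounds plus 3 SD, cutoff set per campaign (cut at about 5.5% in these data); inactive = the rest.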

assay: Hsp70 promoter-driven reporter induction – cell-based, HeLa, Hsp70 promoter luciferase, luminescence, 10 µM, primary screen (AID 1203); details: at 10 µM, hits give high values, scaled: vehicle 0, proteasome-inhibitor control 100%;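 note: 100% = MG132 at 30 µM as the positive control and 0% = DMSO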

| Compound | activation |
| --- | --- |
| CC1=NCCc2c1[nH]c1ccccc21.O=[N+]([O-])c1cc([N+](=O)[O-])c(O)c([N+](=O)[O-])c1 | inactive: -0.24% |
| Cc1cc(C)cc(OP(C)(=O)Nc2ccc(C)cc2C)c1 (stereo not given) | inactive: -0.29% |
| CCOC(=O)c1ccc(NP(C)(=O)Oc2cc(C)cc(C)c2)cc1 (stereo not given) | inactive: -0.19% |
| CP(=O)(Nc1cccc(Br)c1)Oc1ccccc1 (stereo not given) | inactive: -0.04% |
| Cc1cc(C)cc(OP(C)(=O)Nc2ccccn2)c1 (stereo not given) | inactive: -0.37% |
| Cc1ccc(C)c(NP(C)(=O)Oc2ccccc2)c1 (stereo not given) | inactive: -0.28% |
| O=[N+]([O-])c1cc([N+](=O)[O-])c(-n2nnc3ccccc32)c([N+](=O)[O-])c1 | inactive: -0.2% |
| Cc1nc2ccc3ccccc3c2s1.O=[N+]([O-])c1cc([N+](=O)[O-])c(O)c([N+](=O)[O-])c1 | inactive: -0.26% |
| CP(=O)(Nc1ccc(SC(F)(F)F)cc1)Oc1ccccc1 (stereo not given) | inactive: -0.35% |
| CCCOc1ccc(NP(C)(=O)Oc2ccc(Cl)cc2)cc1 (stereo not given) | inactive: -0.05% |
| COc1ccccc1OP(C)(=O)Nc1c(C)cccc1C (stereo not given) | inactive: -0.41% |
| CN1CCCCC1COC(=O)C1(O)c2ccccc2CCc2ccccc21 (stereo not given) | inactive: -0.29% |
| COc1ccccc1OP(C)(=O)Nc1ccccc1 (stereo not given) | inactive: -0.42% |
| CP(=O)(Nc1ccccc1Br)Oc1ccccc1 (stereo not given) | inactive: -0.36% |
| CP(=S)(Nn1cnnc1)Oc1ccccc1 (stereo not given) | inactive: 0.11% |
| Cc1cc(C)cc(OP(C)(=O)Nc2ccc(SC(F)(F)F)cc2)c1 (stereo not given) | inactive: -0.33% |
| CP(=O)(NC(=O)Nc1ccccc1)Oc1ccccc1 (stereo not given) | inactive: 0.03% |
| CP(=O)(Oc1ccccc1)OC(c1ccccc1)C(F)(F)F (stereo not given) | inactive: -0.07% |
| Cc1cccc(C)c1OP(C)(=O)Nc1ccc(SC(F)(F)F)cc1 (stereo not given) | inactive: -0.35% |
| CP(=O)(Nc1ccccn1)Oc1ccc(Cl)cc1 (stereo not given) | inactive: -0.32% |
| CCOP(C)(=S)SCC(=O)NC(C)C(=O)O (stereo not given) | inactive: -0.02% |
| CCOC(=O)c1ccc(NP(C)(=O)Oc2ccc(OC)cc2)cc1 (stereo not given) | inactive: -0.39% |
| CCN(CC)CCCOC(=O)C(O)(c1ccccc1)c1ccccc1 | inactive: -0.23% |
| Cc1cccc(C)c1OP(C)(N)=O (stereo not given) | inactive: -0.06% |

| Compound | activation |
| --- | --- |
| CC(C)(C)c1ccc(OP(C)(=O)Nc2ccc(SC(F)(F)F)cc2)cc1 (stereo not given) | inactive: -0.44% |
| O=[N+]([O-])c1ccc2c(c1)C=Nc1ccccc1O2 | inactive: 0.04% |
| COc1ccc(OP(C)(=O)Nc2cccc(F)c2)cc1 (stereo not given) | inactive: -0.14% |
| COc1ccccc1OP(C)(=O)Nc1cc(Cl)ccc1C (stereo not given) | inactive: 0.08% |
| Cc1cc(C)cc(OP(C)(N)=O)c1 (stereo not given) | inactive: 0.13% |
| CCOC(=O)c1ccc(NP(C)(=O)Oc2ccccc2)cc1 (stereo not given) | inactive: -0.02% |
| Cc1ccc(NP(C)(=O)Oc2ccccc2)c(C)c1 (stereo not given) | inactive: -0.39% |
| COc1ccccc1OP(C)(=O)Nc1ccc(C)cc1 (stereo not given) | inactive: 0.24% |
| COc1ccc(OP(C)(=O)Nc2ccccc2Br)cc1 (stereo not given) | inactive: -0.31% |
| COc1ccccc1OP(C)(=O)Nc1ccc(C)c(C)c1 (stereo not given) | inactive: 0.1% |
| Cc1cc(C)cc(OP(C)(=O)Nc2cccc(C(F)(F)F)c2)c1 (stereo not given) | inactive: -0.19% |
| CP(=O)(OCCOc1ccccc1)OCCOc1ccccc1 | inactive: 0.1% |
| CP(=O)(Nc1ccc(Cl)cc1Cl)Oc1ccccc1 (stereo not given) | inactive: -0.22% |
| Cc1nc2ccc3ccccc3c2o1.O=[N+]([O-])c1cc([N+](=O)[O-])c(O)c([N+](=O)[O-])c1 | inactive: 0.37% |
| CN(C)CCOC(=O)C(O)(c1ccccc1)C1CCCC1 (stereo not given) | inactive: -0.17% |
| COc1ccc(OP(C)(=O)Nc2ccccn2)cc1 (stereo not given) | inactive: 0.02% |
| CCc1ccc(OP(C)(=O)O)cc1 | inactive: -0.09% |
| COc1ccccc1OP(C)(=O)Nc1ccc(C)cc1C (stereo not given) | inactive: -0.01% |
| CP(=O)(Nc1ccccn1)Oc1ccccc1 (stereo not given) | inactive: 0% |
| O=[N+]([O-])c1cc([N+](=O)[O-])c(Nc2ccccn2)c([N+](=O)[O-])c1 | inactive: -0.56% |
| Cc1c(NP(C)(=O)Oc2ccc(C(C)C)cc2)c(=O)n(-c2ccccc2)n1C (stereo not given) | inactive: -0.45% |
| CCc1ccc(OP(C)(=O)Nc2cccnc2)cc1 (stereo not given) | inactive: 0.06% |
| CP(=O)(Oc1ccccc1)N1CCOC1=O (stereo not given) | inactive: -0.25% |
| COc1ccccc1OP(C)(=O)Nc1c(C)n(C)n(-c2ccccc2)c1=O (stereo not given) | inactive: -0.64% |

| Compound | activation |
| --- | --- |
| COc1ccc(OP(C)(=O)Nc2ccc(Br)cc2)cc1 (stereo not given) | inactive: -0.32% |
| CCN(CC)CC(O)COC(=O)C(O)(c1ccccc1)C1CCCCC1 (stereo not given) | inactive: -0.04% |
| CN(C)C(=O)c1c([N+](=O)[O-])cc([N+](=O)[O-])cc1[N+](=O)[O-] | inactive: -0.09% |
| CP(=O)(Nc1ccc(Cl)cc1)Oc1ccc(F)cc1 (stereo not given) | inactive: 0.11% |
| CC(C)(C)c1ccc(OP(C)(=O)O)cc1 | inactive: 0.29% |
| COc1ccccc1OP(C)(=O)Nc1ccccc1Br (stereo not given) | inactive: 0.36% |
| CP(=O)(OC12CC3CC(CC(C3)C1)C2)OC12CC3CC(CC(C3)C1)C2 | inactive: -0.23% |
| CCOC(=O)c1ccc(NP(C)(=O)Oc2ccc(Cl)cc2)cc1 (stereo not given) | inactive: -0.21% |
| COc1ccc(NP(C)(=O)Oc2ccccc2OC)cc1 (stereo not given) | inactive: 0.02% |
| CN(C)CCOC(=O)C(O)(c1ccccc1)C1CCCCC1 (stereo not given) | inactive: -0.52% |
| COc1ccc(OP(C)(=O)Nc2cccc(Br)c2)cc1 (stereo not given) | inactive: -0.08% |
| O=[N+]([O-])c1cc([N+](=O)[O-])c(NCC2CCS(=O)(=O)C2)c([N+](=O)[O-])c1 (stereo not given) | inactive: 0.07% |
| CCOP(C)(=S)SCC(=O)NC(C)(CC)C(=O)O (stereo not given) | inactive: -0.45% |
| Cc1ccccc1NP(C)(=O)Nc1ccccc1C | inactive: 0.04% |
| CP(=O)(Nc1ccc2c(c1)OCCO2)Oc1ccccc1 (stereo not given) | inactive: -0.23% |
| CC(C)c1ccc(OP(C)(=O)Nc2ccc(SC(F)(F)F)cc2)cc1 (stereo not given) | inactive: -0.25% |
| CP(=O)(Nc1ccccc1F)Oc1ccccc1 (stereo not given) | inactive: -0.01% |
| O=C(OCCN1CCN(CCOCc2ccccc2)CC1)C(O)(c1ccccc1)c1ccccc1 | inactive: -0.25% |
| COc1ccc(OP(C)(=O)Nc2ccc(SC(F)(F)F)cc2)cc1 (stereo not given) | inactive: -0.17% |
| CCOC(=O)c1ccc(NP(C)(=O)Oc2ccc(F)cc2)cc1 (stereo not given) | inactive: -0.59% |
| CP(=O)(Nc1ccccc1)Oc1ccc(F)cc1 (stereo not given) | inactive: 0.01% |
| CCN(CC)CCCOC(=O)C(O)(c1ccccc1)C1CCCCC1 (stereo not given) | inactive: -0.08% |
